# Antibody variant affinities, Ab-95 light chain, assay 2

Antigen: PDVDLGDISGINAS, a 14-residue peptide of the SARS-CoV-2 spike HR2 region.

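The library (AAYL52) carries one to three amino acid substitutions per variant, with no insertions or deletions. The assay is AlphaSeq: two haploid yeast populations carry antibody and antigen on their surface. Mating (16 h, 30 °C) was followed by selection of diploids and sequencing of their barcodes. The ratio of observed to expected reads was calibrated, replicate by replicate, on BCL2-family standards whose Kd was known from biolayer interferometry. Each pool was mated in three replicate cultures.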

Each scFv is VH, three GGGGS repeats, VL, as in the parent Ab-95, and differs from it in the CDRs of the light chain only.
VH: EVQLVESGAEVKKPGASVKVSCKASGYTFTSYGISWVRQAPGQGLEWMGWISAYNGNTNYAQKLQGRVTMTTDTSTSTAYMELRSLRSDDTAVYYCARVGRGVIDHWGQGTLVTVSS
VL: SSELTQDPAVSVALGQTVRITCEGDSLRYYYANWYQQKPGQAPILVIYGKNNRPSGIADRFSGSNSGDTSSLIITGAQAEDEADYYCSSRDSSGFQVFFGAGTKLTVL

Substitutions are numbered in sequence along the VL above, starting at 1 (not Kabat).
Values are log10 of the apparent Kd in nM; lower means stronger binding.
A pair that was not seen in that replicate is written "nd"; this usually means weak binding, but a binder can also be missed.
Three control strains display no target. For library AAYL52, 28% of the pairings with them gave a signal, with a median of 3.91 and one signal in twenty below 2.90, so weak values seen in few replicates may be background. Also given: how often the same scFv was detected with the empty control strains, with their mean in brackets.
In this assay the parent's reference entry averaged 2.31; its copy inside this library read 2.25.

{"changes": "A32F+S55D+G94V", "replicates, log10 nM": "nd / nd / nd", "signal with controls": "0 of 9"}
{"changes": "S89I+S93R+F98C", "replicates, log10 nM": "1.78 / 2.18 / 1.76", "signal with controls": "4 of 9 (3.83)"}
{"changes": "S26Y+S92C+Q96G", "replicates, log10 nM": "nd / 4.13 / nd", "signal with controls": "1 of 9 (3.60)"}
{"changes": "L27R+D91M+S93R", "replicates, log10 nM": "nd / nd / nd", "signal with controls": "1 of 9 (3.72)"}
{"changes": "N33I+S55W+F98Y", "replicates, log10 nM": "4.09 / nd / 4.25", "signal with controls": "2 of 9 (3.67)"}
{"changes": "N52F+S55R", "replicates, log10 nM": "3.16 / 2.70 / 3.50", "signal with controls": "3 of 9 (4.13)"}
{"changes": "N51S+P54V+S89Q", "replicates, log10 nM": "3.98 / 4.01 / 4.40", "signal with controls": "4 of 9 (3.60)"}
{"changes": "L27S+N52I+S89E", "replicates, log10 nM": "3.53 / nd / nd", "signal with controls": "2 of 9 (3.37)"}
{"changes": "R28S+R90L", "replicates, log10 nM": "2.39 / 1.99 / 2.01", "signal with controls": "0 of 9"}
{"changes": "L27V+S93Y+Q96E", "replicates, log10 nM": "nd / 4.16 / nd", "signal with controls": "3 of 9 (3.99)"}
{"changes": "N51G+S89A+S93F", "replicates, log10 nM": "3.01 / 4.93 / 2.98", "signal with controls": "0 of 9"}
{"changes": "E23A+S88I+Q96E", "replicates, log10 nM": "3.13 / nd / nd", "signal with controls": "0 of 9"}
{"changes": "Y29L+N51K+P54Y", "replicates, log10 nM": "3.66 / 2.75 / nd", "signal with controls": "2 of 9 (3.21)"}
{"changes": "S93D+Q96C", "replicates, log10 nM": "nd / nd / nd", "signal with controls": "2 of 9 (3.29)"}
{"changes": "A32E+D91M+G94D", "replicates, log10 nM": "3.68 / nd / nd", "signal with controls": "3 of 9 (3.92)"}
{"changes": "S88G+D91V+S93H", "replicates, log10 nM": "nd / 5.17 / nd", "signal with controls": "2 of 9 (2.77)"}
{"changes": "S26R+A32T+N33C", "replicates, log10 nM": "2.84 / 2.17 / 2.93", "signal with controls": "4 of 9 (4.23)"}
{"changes": "Y30L+N51E+P54C", "replicates, log10 nM": "3.78 / nd / nd", "signal with controls": "3 of 9 (3.61)"}
{"changes": "E23A+Y31A+S88W", "replicates, log10 nM": "2.23 / 2.05 / 1.75", "signal with controls": "3 of 9 (3.90)"}
{"changes": "N51D+S89P+F95M", "replicates, log10 nM": "3.11 / 2.63 / 2.49", "signal with controls": "5 of 9 (3.69)"}
{"changes": "K50D+S92C", "replicates, log10 nM": "nd / nd / nd", "signal with controls": "2 of 9 (3.83)"}
{"changes": "Y30K+S55W+S88M", "replicates, log10 nM": "0.86 / 0.88 / 0.29", "signal with controls": "1 of 9 (3.84)"}
{"changes": "E23Q+Y31E+F98M", "replicates, log10 nM": "1.30 / 1.29 / 1.08", "signal with controls": "2 of 9 (3.52)"}
{"changes": "R53C+S55Q+S88A", "replicates, log10 nM": "3.50 / nd / nd", "signal with controls": "2 of 9 (3.55)"}
{"changes": "R28M+N51D+N52A", "replicates, log10 nM": "2.81 / 2.82 / 2.71", "signal with controls": "5 of 9 (3.65)"}
{"changes": "D25R+R28I+S92Q", "replicates, log10 nM": "3.53 / 3.03 / 3.38", "signal with controls": "3 of 9 (3.98)"}
{"changes": "N33C+N52H+R53C", "replicates, log10 nM": "3.88 / nd / nd", "signal with controls": "2 of 9 (4.11)"}
{"changes": "Y30W+N51V+Q96Y", "replicates, log10 nM": "3.96 / nd / 4.46", "signal with controls": "4 of 9 (4.18)"}
{"changes": "D25A+Y30E+N51M", "replicates, log10 nM": "2.26 / 2.01 / 1.73", "signal with controls": "0 of 9"}

Reference: Engelhart et al. 2022, doi:10.1038/s41597-022-01779-4. File: FLAb, binding data.